The term MIC denotes the least concentration at which growth counts as inhibited.

1 sequence from ChEMBL document CHEMBL4680184, “Simple amphiphilic α-hydrazido acids: Rational design, synthesis, and in vitro bioactivity profile of a novel class of potential antimicrobial compounds” (Eur J Med Chem, 2020) can be followed below.

The test system of this experiment is Pseudomonas aeruginosa. Particulars: ATCC 27853.

GENTAMICIN gave an MIC of 0.5 µg/mL.
